According to ChEMBL document CHEMBL1156926, “CoMFA analysis of tgDHFR and rlDHFR based on antifolates with 6-5 fused ring system using the all-orientation search (AOS) routine and a modified cross-validated r(2)-guided region selection (q(2)-GRS) routine and its initial application” (Bioorg Med Chem, 2010):

Target: T1, Bifunctional dihydrofolate reductase-thymidylate synthase (Toxoplasma gondii, UniProt Q07422)
T1 sequence (Q07422 whole entry): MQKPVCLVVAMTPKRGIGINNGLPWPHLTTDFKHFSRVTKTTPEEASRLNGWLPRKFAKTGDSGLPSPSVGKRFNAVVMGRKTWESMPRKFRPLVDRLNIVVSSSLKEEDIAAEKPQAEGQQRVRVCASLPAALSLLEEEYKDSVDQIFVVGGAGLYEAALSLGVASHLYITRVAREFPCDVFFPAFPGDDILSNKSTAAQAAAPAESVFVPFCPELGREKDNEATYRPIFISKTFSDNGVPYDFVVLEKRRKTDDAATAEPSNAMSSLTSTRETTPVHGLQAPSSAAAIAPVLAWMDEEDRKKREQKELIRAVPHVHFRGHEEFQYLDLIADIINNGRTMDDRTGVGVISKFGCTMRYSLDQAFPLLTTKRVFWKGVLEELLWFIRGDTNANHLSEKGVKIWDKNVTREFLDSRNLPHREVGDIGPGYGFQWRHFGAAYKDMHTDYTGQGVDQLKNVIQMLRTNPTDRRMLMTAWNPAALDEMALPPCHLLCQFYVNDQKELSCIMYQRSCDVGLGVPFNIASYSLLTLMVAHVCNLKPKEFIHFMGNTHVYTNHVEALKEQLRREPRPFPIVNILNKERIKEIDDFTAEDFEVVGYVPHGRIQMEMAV
Assay: Inhibition of Toxoplasma gondii DHFR using dihydrofolic acid substrate and NADPH cofactor by spectrophotometric assay

`COc1cc(Sc2[nH]c3nc(N)nc(N)c3c2C)cc(OC)c1OC` gave an IC50 of 686 nM.
